DT40 TDP1 no CPT: qHTS for Inhibitors of human tyrosyl-DNA phosphodiesterase 1 (TDP1): qHTS in cells in absence of CPT; DT40 Tdp1-/- hTDP1 cells, no CPT, ATP luminescence, 48 h; Potency, µM (titrated, usually from 46.2 µM), for the others: at the highest dose activity change, negative = growth inhibition, actives largely listed as inhibitors; 420,000 compounds, 15% hits; AID 686978, 2013; further: potency means the concentration at half of the fitted maximal effect; on the % scale 0 is the no-effect control and ±100 the full control effect; nearly all actives have a fitted effect of over 55% in size
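Chicken DT40 Tdp1-/- cells complemented with human TDP1, screened without camptothecin (DMSO vehicle only), 400 cells/well. Compounds pin-transferred, cells incubated at 37 °C for at least 48 hr. Growth read as ATP-dependent luminescence (CellTiter-Glo, 30 min at RT).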
TDP1 inh: blocks human tyrosyl-DNA phosphodiesterase 1. Q9NUW8. recombinant TDP1, AlphaScreen DNA substrate cleavage. Potency, µM (titrated, usually from 130 µM), for inactives: at the top dose activity change, negative = inhibition, usual class: inhibitors. 350,000 compounds, 0.28% hits. AID 485290; further: potency means the concentration at half of the fitted maximal effect; on the % scale 0 is the no-effect control and ±100 the full control effect; nearly all actives have a fitted effect of over 40% in size
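Here, a 5' biotin and 3' phosphotyrosine-FITC DNA oligonucleotide reports Tdp1 activity: intact substrate bridges AlphaScreen beads, while cleavage leaves a 3' phosphate and drops signal. All incubations at room temperature.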
uPA surface inh: cell surface uPA generation inhibition. cell surface uPA generation assay, qHTS. Potency, µM (highest dose often 38.3 µM), without a hit: top-dose activity change, negative = inhibition, actives largely listed as inhibitors. 330,000 compounds, 0.31% hits. AID 540303; active means well fitted inhibition curve with a large enough effect; inconclusive means small, poorly fitted or top-dose-only effect; inactive means no such curve, though single readings can be large or run the other way; tested in mouse RAW 264.7 cells; further: potency means the concentration at half of the fitted maximal effect; on the % scale 0 is the no-effect control and ±100 the full control effect; nearly all actives have a fitted effect of over 55% in size
DT40 TDP1 CPT: growth inhibition of DT40 Tdp1-/-;hTDP1 cells with camptothecin (screen for TDP1 inhibitors). chicken DT40 Tdp1-/-;hTDP1 cells + 20 nM CPT, ATP luminescence, 48 h. Potency, µM (titrated, usually from 46.2 µM), inactives show top-dose activity change, negative = growth inhibition, hits mostly inhibitors. 420,000 compounds, 12% hits. AID 686979; further: potency means the concentration at half of the fitted maximal effect; on the % scale 0 is the no-effect control and ±100 the full control effect; nearly all actives have a fitted effect of over 55% in size
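Chicken DT40 Tdp1-/- cells complemented with human TDP1, 400 cells/well, exposed to compounds plus 20 nM camptothecin for at least 48 h at 37 C; viability read as ATP content by CellTiter-Glo luminescence.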
miR-21 reporter: raises the signal of a miR-21 reporter | HeLa miR-21 FLuc reporter, luciferase, 48 h | Potency, µM (highest dose often 38.3 µM), inactives show at the highest dose reporter change, positive = more light | 340,000 tested, under 10 active | AID 2288; active = well fitted rising curve with a large enough effect; inconclusive = small, poorly fitted or top-dose-only effect; inactive = no such curve, though single readings can be large or run the other way;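 note: % of control where 0% means no effect; miR-21 action dims this reporter so a rising signal means less miR-21 action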
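HeLa cells stably expressing CMV-driven firefly luciferase with a downstream miR-21 binding sequence, endogenously expressing miR-21, were treated with titrations (up to about 40uM final) for 48 hours at 37 degree Celsius. Luciferase luminescence was read after lysis.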
An asterisk follows results filed as active; ? = inconclusive; . = no result; [ ] = remark or other dose. Most compounds without a hit are left out; they make up all but 16% or so of the library. Unless noted, the call rests on the fitted dose curve; in most records, active means well fitted curve in the direction sought with a large enough effect; inconclusive means small, poorly fitted or top-dose-only effect, or another doubt; inactive means no such curve, though single readings can be large; an effect the other way counts as inactive or inconclusive.

| item | molecule | DT40 TDP1 no CPT | TDP1 inh | uPA surface inh | DT40 TDP1 CPT | miR-21 reporter |
| --- | --- | --- | --- | --- | --- | --- |
| 1 | COc1ccccc1NS(=O)(=O)c1cc(NC(=O)c2ccc(Cl)nc2)ccc1Cl | 7.3µM* | 6% | -9% | 9.2µM* | ? |
| 2 | COc1ccc(C(=O)Nc2ccc(Cl)c(S(=O)(=O)Nc3ccccc3OC)c2)cc1 | ? | 4% | -10% | ? | ? |
| 3 | COc1ccc(NC(=O)c2ccc(Cl)nc2)cc1S(=O)(=O)N1CCOCC1 | 23µM* | -5% | ? | 16µM* | . |
| 4 | CCOc1ccc(NC(=O)c2cccc(-n3cccc3)c2)cc1S(=O)(=O)N1CCOCC1 | . | 0.79µM* | . | . | . |
| 5 | Cc1c(N(C)CS(=O)(=O)O)c(=O)n(-c2ccccc2)n1C | 0% | -9% | 13% | 3% | . |
| 6 | CC(C)Cc1ccc(CN2CCCC(NC(=O)CCn3cnnn3)C2)cc1 (stereo not drawn) | ? | 0% | 0% | ? | 5% |
| 7 | CCOc1ccc(CCNC(=O)c2ccc(S(=O)(=O)N3CCCC3)cc2)cc1OCC | ? | . | 1% | ? | . |
| 8 | COc1ccc(NC(=O)Cn2ncc(Cl)c(Cl)c2=O)cc1S(=O)(=O)N1CCOCC1 | 10µM* | -1% | -9% | 12µM* | ? |
| 9 | Cc1ccc(N=Nc2c(N)[nH]n3c(=O)cc(C)nc23)cc1 | 15µM* | 11% | -4% | ? | -27% |
| 10 | Cc1ccc(N=Nc2c(=O)[nH]n3c(C)cc(C)nc23)cc1 | -30% | 4% | 0% | -12% | -4% |
| 11 | Nc1[nH]n2c(=O)cc(-c3ccccc3)nc2c1N=Nc1ccccc1 | 5.2µM* | 9% | 3% | 3.3µM* | -4% |
| 12 | Nc1[nH]n2c(=O)cc(-c3ccccc3)nc2c1N=Nc1ccc(S(N)(=O)=O)cc1 | 0% | 6% | -1% | 1% | -1% |
| 13 | CC(C)=CCC1C(=O)N(c2ccccc2)N(c2ccccc2)C1=O | 3.8µM* | 6% | . | 3.8µM* | . |
| 14 | O=C1C2C3C=CC(CC3)C2C(=O)N1c1ccccc1 (stereo not drawn) | ? | . | 30% | 4% | -2% |
| 15 | CCCCC1C(=O)N(c2ccccc2)N(c2ccc(O)cc2)C1=O (stereo not drawn) | 0.58µM* | -10%[56.1 µM] | ? | 1µM* | . |
| 16 | COc1cccc(CNCCSc2nnnn2C)c1OC | -1% | -2% | . | -9% | -2% |
| 17 | Cc1ccccc1S(=O)(=O)Nc1ncc(C(F)(F)F)cc1Cl | -24% | 1% | -6% | -6% | 5% |
| 18 | O=S(=O)(NNc1ncc(C(F)(F)F)cc1Cl)c1ccccc1 | ? | 0% | 3% | 16µM* | . |
| 19 | O=S(=O)(NNc1ncc(C(F)(F)F)cc1Cl)c1ccc(F)cc1F | 21µM* | 0% | 3% | ? | . |
| 20 | CCOC(=O)C1CCCN(C(=O)c2ccc(OC)cc2)CC1 (stereo not drawn) | 0% | . | . | -20% | . |
| 21 | O=C(NCCc1csc(-c2ccc(C(F)(F)F)cc2)n1)C(=O)Nc1cc(F)ccc1F | -12% | 3% | . | -1% | -2% |
| 22 | Cc1nc(C(=O)Nc2ccccc2Cl)cc2c1[nH]c1ccccc12 | 6.5µM* | 4% | 3% | ? | -15% |
| 23 | CCCCN(CCCC)CCCNC(=O)c1ccc2nc(N3CCCCC3)sc2c1 | 23µM* | 1% | . | ? | -52% |
| 24 | Cc1ccc(C)c(N2CCN(CCCNC(=O)c3ccc4nc(N5CCCCC5)sc4c3)CC2)c1 | 10µM* | 3% | . | 18µM* | ? |
| 25 | CC1CCCC(C)N1CCCNC(=O)c1ccc2nc(N3CCCCC3)sc2c1 (stereo not drawn) | -18% | . | ? | -1% | -46% |
| 26 | CC1CCN(c2nc3ccc(C(=O)NCCCN4CCCCC4C)cc3s2)CC1 (stereo not drawn) | ? | . | 11µM* | ? | -81% |
| 27 | COc1ccc(S(=O)(=O)NCCC(=O)Nc2ccc(C)cc2)cc1 | ? | . | -3% | -4% | 0% |
| 28 | CCOc1ccc(C(=O)c2cn(Cc3cccc(OC)c3)c3cc4c(cc3c2=O)OCO4)cc1 | ? | 8% | . | ? | -1% |
| 29 | COc1ccc2c(c1)c(=O)c(C(=O)c1ccccc1)cn2Cc1ccc(C)cc1 | 16µM* | 3% | ? | ? | 26% |
| 30 | CCOc1ccc(NC(=O)Cn2cc(C(=O)c3ccccc3)c(=O)c3cc(OC)ccc32)cc1 | ? | 6% | . | ? | -9% |
| 31 | COc1ccc(C(=O)c2cn(Cc3ccccc3F)c3cc4c(cc3c2=O)OCCO4)cc1OC | 21µM* | 9% | . | ? | -21% |
| 32 | COc1cc2c(=O)c(C(=O)c3ccc(C)c(C)c3)cn(Cc3ccc(F)cc3)c2cc1OC | 18µM* | 0% | . | 10µM* | 2% |
| 33 | CCOc1ccc(C(=O)c2cn(CC(=O)Nc3ccc(OC)cc3)c3cc4c(cc3c2=O)OCO4)cc1 | -27% | 9% | . | ? | 4% |
| 34 | CCOc1ccc(C(=O)c2cn(Cc3ccc(OC)cc3)c3cc(OC)c(OC)cc3c2=O)cc1 | 18µM* | 5% | . | ? | ? |
| 35 | Cc1nc2nc(NC(=O)c3ccc(C(C)(C)C)cc3)[nH]n2c(=O)c1Cl | 6% | 5% | . | 8% | 10% |
| 36 | COc1cc2c(=O)c(C(=O)c3ccc(C)c(C)c3)cn(Cc3ccccc3F)c2cc1OC | 16µM* | 5% | . | 18µM* | -9% |
| 37 | Cc1ccc(C(=O)c2cn(Cc3ccccc3)c3c(F)cc(F)cc3c2=O)cc1 | ? | 5% | . | ? | -6% |
| 38 | CCOc1ccc(C(=O)c2cn(CC(=O)Nc3cc(OC)ccc3OC)c3cc(OC)c(OC)cc3c2=O)cc1 | 16µM* | 9% | . | 23µM* | -11% |
| 39 | CCOc1ccc(NC(=O)Cn2cc(C(=O)c3ccc(C)c(C)c3)c(=O)c3cc(OC)c(OC)cc32)cc1 | -1% | 1% | . | -12% | 5% |
| 40 | COc1cccc(Cn2cc(C(=O)c3ccc(Cl)cc3)c(=O)c3ccccc32)c1 | ? | 9% | . | ? | 14% |
| 41 | COc1ccc(Cn2cc(C(=O)c3ccc(C)c(C)c3)c(=O)c3ccccc32)cc1 | 16µM* | 1% | . | ? | 16% |
| 42 | CCc1ccc(C(=O)c2cn(Cc3ccccc3)c3cc(OC)c(OC)cc3c2=O)cc1 | 16µM* | 8% | . | 16µM* | ? |
| 43 | COc1ccc(CN2C[C@@H](CO)O[C@@H](n3cnc4c(NCCCO)ncnc43)C2)cc1 | -4% | . | . | -7% | . |
| 44 | Cc1cc2ccccc2c(=O)n1CC(=O)Nc1ccc2c(c1)OCCO2 | -19% | 4% | -3% | -7% | 0% |
| 45 | COc1cc2c(=O)c(C(=O)c3ccc(C)c(C)c3)cn(Cc3ccccc3)c2cc1OC | ? | 8% | . | 15µM* | ? |
| 46 | COc1ccc(C(=O)c2cn(Cc3ccc(F)cc3)c3c(F)cc(F)cc3c2=O)cc1 | 23µM* | 6% | . | ? | -6% |
| 47 | COc1ccccc1Cn1cc(C(=O)c2ccc(Cl)cc2)c(=O)c2ccccc21 | 15µM* | 5% | . | 23µM* | ? |

Bioassay records as filed in PubChem BioAssay.
